From ChEMBL document CHEMBL2169781, “Discovery and biological evaluation of a novel class of dual microsomal prostaglandin E2 synthase-1/5-lipoxygenase inhibitors based on 2-[(4,6-diphenethoxypyrimidin-2-yl)thio]hexanoic acid” (J Med Chem, 2011)

Molecular target: T1, Polyunsaturated fatty acid 5-lipoxygenase (Homo sapiens) (UniProt P09917)
T1 sequence (whole entry): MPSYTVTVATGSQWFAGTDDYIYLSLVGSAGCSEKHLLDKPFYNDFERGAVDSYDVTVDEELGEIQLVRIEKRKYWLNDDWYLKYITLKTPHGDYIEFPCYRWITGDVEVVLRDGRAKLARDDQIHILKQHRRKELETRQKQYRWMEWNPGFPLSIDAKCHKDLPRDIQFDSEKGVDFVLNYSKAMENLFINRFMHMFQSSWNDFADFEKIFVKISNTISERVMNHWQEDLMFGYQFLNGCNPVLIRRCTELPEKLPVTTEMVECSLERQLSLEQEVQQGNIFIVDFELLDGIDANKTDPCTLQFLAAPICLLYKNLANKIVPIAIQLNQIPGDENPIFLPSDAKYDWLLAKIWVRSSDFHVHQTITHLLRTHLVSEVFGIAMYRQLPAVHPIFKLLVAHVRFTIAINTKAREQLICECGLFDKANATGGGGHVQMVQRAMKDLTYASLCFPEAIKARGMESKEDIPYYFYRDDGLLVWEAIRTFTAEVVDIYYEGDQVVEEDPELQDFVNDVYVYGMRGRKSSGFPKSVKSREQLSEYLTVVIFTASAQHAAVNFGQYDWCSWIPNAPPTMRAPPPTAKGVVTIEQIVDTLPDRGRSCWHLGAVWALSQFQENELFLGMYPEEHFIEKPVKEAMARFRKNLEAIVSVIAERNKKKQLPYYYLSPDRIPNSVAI
Experiment: Inhibition of human recombinant 5-lipoxygenase-mediated product formation from arachidonic acid assessed as remaining activity at 10 uM after 5 to 10 mins by HPLC analysis
Procedure, shortened: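 Human 5-LO expressed in E. coli BL21 (pT3-5LO) at 37 °C, purified and used at once. Enzyme (0.5 μg/mL in PBS/EDTA with 1 mM ATP) preincubated with compound 5–10 min at 4 °C, prewarmed 30 s at 37 °C, started with 2 mM CaCl₂ + 20 μM AA (±1 μM 13(S)-HpODE), 10 min at 37 °C, stopped with cold methanol, products by HPLC.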

Activity: 60%
SMILES: CCCCC(Oc1cc(OCCc2ccccc2)cc(OCCc2ccccc2)c1)C(=O)O (stereo unspecified)
